Laboratory results published in patent publication US9636336B2, “Aminoester derivatives” (CHIESI FARMACEUTICI S.p.A., priority 2015, dated 2017).
Where two headings read alike, the source gives them in different places.

By UniProt entry, the sequences of proteins in these tests, tags left out. Chains listed by the source or under a name are the forms on record and can include a tag or linker.
UniProt Q07343, other isoform, or with tags, fused parts or gaps: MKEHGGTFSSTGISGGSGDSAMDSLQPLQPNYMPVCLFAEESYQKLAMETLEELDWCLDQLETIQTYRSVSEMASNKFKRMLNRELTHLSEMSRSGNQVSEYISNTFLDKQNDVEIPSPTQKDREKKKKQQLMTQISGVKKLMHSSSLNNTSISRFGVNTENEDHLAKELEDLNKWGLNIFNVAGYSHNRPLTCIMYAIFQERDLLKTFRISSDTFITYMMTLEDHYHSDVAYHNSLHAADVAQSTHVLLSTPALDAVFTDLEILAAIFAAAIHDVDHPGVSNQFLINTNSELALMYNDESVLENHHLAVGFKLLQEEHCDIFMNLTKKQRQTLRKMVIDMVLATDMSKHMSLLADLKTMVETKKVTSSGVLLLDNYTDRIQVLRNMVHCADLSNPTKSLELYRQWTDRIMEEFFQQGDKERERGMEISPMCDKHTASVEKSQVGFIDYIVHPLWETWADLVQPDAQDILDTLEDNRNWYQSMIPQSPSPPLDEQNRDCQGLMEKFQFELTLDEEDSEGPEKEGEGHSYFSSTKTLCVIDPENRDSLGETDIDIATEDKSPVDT

Target: Human recombinant PDE4B2 (Homo sapiens (Human), UniProt Q07343)
Test: PDE4B2 HTRF assay
Format: biochemical
Protocol: PDE4B2 activity is detected using the LANCE Ultra cAMP homogeneous time resolved fluorescence resonance energy transfer (TR-FRET) assay from Perkin Elmer. The assay is based on the competition between the europium (Eu) chelate-labeled cAMP tracer and sample cAMP for binding sites on cAMP-specific monoclonal antibodies (mAb) labelled with the ULight™ dye. The assay is carried out in 384-well low volume plates in a volume of 10 μl. Human recombinant PDE4B2 (80 pM) is incubated for 2 h with 3 nM cAMP in buffer containing 1×HBSS, 5 mM HEPES, 3 mM MgCl2, 0.1% BSA, pH 7.4 with or without test compounds. The enzymatic reactions are efficiently stopped by the addition of 500 μM IBMX present in the combined Stop/Detection buffer containing europium (Eu) chelate-labeled cAMP tracer and cAMP-specific monoclonal antibodies (mAb) labelled with the ULight™ dye. […] IC50 values are determined from competition curves using a non-linear curve fitting program.

| IC50 (PDE4B2 HTRF assay) | SMILES | IC50 |
| --- | --- | --- |
| 1 to 10 nM | COc1ccc([C@H](Cc2c(Cl)c[n+]([O-])cc2Cl)OC(=O)c2ccc(CNC(C(=O)OC[C@@H]3CCN3C)c3ccccc3)s2)cc1OC (stereo partly drawn) [Example 27, [(1S)-2-(3,5-dichloro-1-oxido-pyridin-1-ium-4-yl)-1-(3,4-dimethoxyphenyl)ethyl] 5-[[[2-[[(2S)-1-methylazetidin-2-yl]methoxy]-2-oxo-1-phenyl-ethyl]amino]methyl]thiophene-2-carboxylate] |  |
| 1 to 10 nM | COc1ccc([C@H](Cc2c(Cl)c[n+]([O-])cc2Cl)OC(=O)c2ccc(CNC(C(=O)OC[C@H]3CCN3C)c3ccccc3)s2)cc1OC (stereo partly drawn) [Example 28, [(1S)-2-(3,5-dichloro-1-oxido-pyridin-1-ium-4-yl)-1-(3,4-dimethoxyphenyl)ethyl] 5-[[[2-[[(2R)-1-methylazetidin-2-yl]methoxy]-2-oxo-1-phenyl-ethyl]amino]methyl]thiophene-2-carboxylate] |  |
| 1 to 10 nM | COc1ccc([C@H](Cc2c(Cl)c[n+]([O-])cc2Cl)OC(=O)c2ccc(CNC(C(=O)OC[C@H]3CCCN3C)c3ccccc3)s2)cc1OC (stereo partly drawn) [Example 15, [(1S)-2-(3,5-dichloro-1-oxido-pyridin-1-ium-4-yl)-1-(3,4-dimethoxyphenyl)ethyl] 5-[[[2-[[(2R)-1-methylpyrrolidin-2-yl]methoxy]-2-oxo-1-phenyl-ethyl]amino]methyl]thiophene-2-carboxylate] |  |
|  | COc1ccc([C@H](Cc2c(Cl)c[n+]([O-])cc2Cl)OC(=O)c2ccc(CNC3(C(=O)OCC4CCN(C)CC4)CCc4ccccc43)s2)cc1OC (stereo partly drawn) [Example 38, [(1S)-2-(3,5-dichloro-1-oxido-pyridin-1-ium-4-yl)-1-(3,4-dimethoxyphenyl)ethyl]5-[[[1-[(1-methyl-4-piperidyl)methoxycarbonyl]indan-1-yl]amino]methyl]thiophene-2-carboxylate] | 1 to 10 nM |
